Test results: paper PMC7607848 (Journal of medicinal chemistry, 2018)

Protein sequences, listed by entry. Tags and fused reporters are not part of them.
UniProt P21554, whole entry: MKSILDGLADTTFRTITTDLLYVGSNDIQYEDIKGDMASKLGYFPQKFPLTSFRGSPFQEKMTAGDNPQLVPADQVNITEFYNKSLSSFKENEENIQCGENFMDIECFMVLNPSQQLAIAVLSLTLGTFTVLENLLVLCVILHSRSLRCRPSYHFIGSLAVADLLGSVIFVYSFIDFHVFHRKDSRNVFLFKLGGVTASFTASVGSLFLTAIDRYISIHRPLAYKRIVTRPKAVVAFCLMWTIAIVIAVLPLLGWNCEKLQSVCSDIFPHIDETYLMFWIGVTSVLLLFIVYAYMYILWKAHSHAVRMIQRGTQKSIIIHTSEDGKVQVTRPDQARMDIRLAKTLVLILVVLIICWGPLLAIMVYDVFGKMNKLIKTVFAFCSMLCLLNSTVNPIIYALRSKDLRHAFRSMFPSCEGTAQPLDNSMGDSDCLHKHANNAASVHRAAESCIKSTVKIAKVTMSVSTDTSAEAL

Assays:
MDCK-mdr1 cells = conditions: percent transported apical to basal, 10 μM, 1 h, 37 °C
hERG channels = conditions: cited from earlier work
[1] = half-life method
[2] = mouse, in vivo
[3] = system: alcohol-induced liver steatosis; conditions: twice-daily repeated oral dosing for 14 days
hCB1 = hCB1 (Homo sapiens, UniProt P21554); conditions: ratio of Ki hCB2 / Ki hCB1

Structure (SMILES)	MDCK-mdr1 A to B (MDCK-mdr1 cells)	selectivity Ki CB2/CB1 (hCB1)	also measured
Clc1ccc(CN2CCN(c3ncnc4c3nc(-c3ccccc3Cl)n4-c3ccc(Cl)cc3)CC2)cc1 [Compound 33, 6-[4-(4-Chlorobenzyl)piperazin-1-yl]-8-(2-chlorophenyl)-9-(4-chlorophenyl)-9H-purine]	0%	–	–
CN1CCN(c2ncnc3c2nc(-c2ccccc2Cl)n3-c2ccc(Cl)cc2)CC1 [Compound 6, 8-(2-Chlorophenyl)-9-(4-chlorophenyl)-6-(4-methylpiperazin-1-yl)-9H-purine]	–	–	hERG activity (hERG channels): undesirable activity
Clc1ccc(-n2c(-c3ccccc3Cl)nc3c(N4CCN(Cc5ccccc5Cl)CC4)ncnc32)cc1 [Compound 25, 6-[4-(2-Chlorobenzyl)piperazin-1-yl]-8-(2-chlorophenyl)-9-(4-chlorophenyl)-9H-purine]	–	–	human-hepatic-microsomal stability clearance [1]: clearance: 14 mL/min/kg; brain accumulation upon repeated dosing [2]: did not accumulate in the brain; accumulation of compound in brain at end of steatosis study [3]: no significant accumulation of the compound
FC(F)(F)Oc1ccccc1CN1CCN(c2ncnc3c2nc(-c2ccccc2Cl)n3-c2ccc(Cl)cc2)CC1 [Compound 29, 8-(2-Chlorophenyl)-9-(4-chlorophenyl)-6-{4-[2-(trifluoromethoxy)benzyl]piperazin-1-yl}−9H-purine]	–	>5000	–
COc1ccc(CN2CCN(c3ncnc4c3nc(-c3ccccc3Cl)n4-c3ccc(Cl)cc3)CC2)cc1 [Compound 35, 8-(2-Chlorophenyl)-9-(4-chlorophenyl)-6-[4-(4-methoxybenzyl)-piperazin-1-yl]-9H-purine]	0%	–	–
FC(F)(F)c1ccccc1CN1CCN(c2ncnc3c2nc(-c2ccccc2Cl)n3-c2ccc(Cl)cc2)CC1 [Compound 28, 8-(2-Chlorophenyl)-9-(4-chlorophenyl)-6-{4-[2-(trifluoromethyl)-benzyl]piperazin-1-yl}−9H-purine]	–	>2000	–
